# AlphaSeq binding of Ab-95 light chain variants to a spike HR2 peptide

All variants were tested on one target, the spike HR2 peptide PDVDLGDISGINAS (SARS-CoV-2).

Parent scFv Ab-95: VH joined to VL by the linker GGGGSGGGGSGGGGS. Changes lie in the light chain CDRs alone.
VH: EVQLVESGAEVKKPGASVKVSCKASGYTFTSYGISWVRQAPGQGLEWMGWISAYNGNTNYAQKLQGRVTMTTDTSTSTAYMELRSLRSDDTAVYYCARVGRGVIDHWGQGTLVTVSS
VL: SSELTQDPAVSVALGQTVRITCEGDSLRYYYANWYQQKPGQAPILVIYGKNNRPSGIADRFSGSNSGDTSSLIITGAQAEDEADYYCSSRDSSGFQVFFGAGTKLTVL

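The parent was found by panning a naive human phage display library on the peptide. In library AAYL52, one, two or three CDR residues were substituted; doubles and triples were drawn at random. In AlphaSeq, yeast of one mating type display the scFv and yeast of the other type display the target. The frequency of each diploid, read from paired DNA barcodes, reflects how well the two displayed proteins bind. Read counts were normalised to the haploid input and turned into Kd by a linear fit to BCL2-family pairs of known affinity, for each replicate. The assay was run in three technical replicates.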

Substitutions are numbered in sequence along the VL above, starting at 1 (not Kabat).
All variants listed here change K50 of the VL, counted from its first residue.
Each Kd is an estimate from the mating assay, the geometric mean of the replicates in which the pair was seen; lower is stronger.
"nd" means that the variant was in the library but no mating with the target was seen in any replicate; the authors take this as a sign of poor binding, and no number exists.

* K50C/R53E -> 19 µM (1 of 3 replicates; controls 4 of 9)
* L27E/K50N -> 1.4 µM (3 of 3 replicates; controls 4 of 9)
* Y31R/K50P -> 37 nM (3 of 3 replicates; controls 1 of 9)
* G49C/K50A/S92Y -> 3.5 µM (1 of 3 replicates; controls 0 of 9)
* G49R/K50I/N52A -> 11 µM (2 of 3 replicates; controls 2 of 9)
* N33C/K50Y/Q96M -> 52 µM (3 of 3 replicates; controls 2 of 9)
* K50T/N52I/F98T -> 1.0 µM (3 of 3 replicates; controls 2 of 9)
* K50G -> 430 nM (3 of 3 replicates; controls 3 of 9)
* L27F/K50E/S93M -> 2.3 µM (3 of 3 replicates; controls 2 of 9)
* Y31K/G49V/K50Y -> 150 µM (1 of 3 replicates; controls 2 of 9)
* K50W/G94H/F95Q -> 690 µM (1 of 3 replicates; controls 7 of 9)
* G24W/K50E/G94K -> 31 µM (3 of 3 replicates; controls 3 of 9)
* A32H/K50N/P54M -> 860 nM (1 of 3 replicates; controls 0 of 9)
* R28V/K50L/N51H -> 5.3 µM (2 of 3 replicates; controls 1 of 9)
* Y31A/K50H/D91Y -> 21 nM (3 of 3 replicates; controls 3 of 9)
* D25I/K50C/S93D -> nd (0 of 3 replicates; controls 0 of 9)
* Y30F/K50Y/N52M -> 11 µM (2 of 3 replicates; controls 3 of 9)
* G24H/K50Y -> 1.3 µM (3 of 3 replicates; controls 6 of 9)
* Y29Q/K50R/S88W -> 310 nM (3 of 3 replicates; controls 4 of 9)
* K50A/F98E -> 170 nM (3 of 3 replicates; controls 3 of 9)
* K50D/N52E/S89K -> 590 nM (3 of 3 replicates; controls 0 of 9)
* D25G/K50R -> 270 nM (3 of 3 replicates; controls 5 of 9)
* K50E/S92N/F98W -> 140 nM (3 of 3 replicates; controls 4 of 9)
* L27F/K50A/S55C -> 4.6 µM (2 of 3 replicates; controls 2 of 9)
* D25A/K50Q/N51S -> 250 nM (3 of 3 replicates; controls 5 of 9)
* D25M/S26W/K50T -> 2.0 µM (2 of 3 replicates; controls 0 of 9)
* A32E/K50S/S55G -> 2.1 µM (1 of 3 replicates; controls 1 of 9)
* K50D/S88T/V97W -> 160 nM (3 of 3 replicates; controls 4 of 9)
* Y30V/K50F/N52E -> 2.3 µM (3 of 3 replicates; controls 4 of 9)
* Y30T/K50Y/F95N -> 360 nM (3 of 3 replicates; controls 4 of 9)
* S26D/K50G/V97R -> 890 nM (3 of 3 replicates; controls 8 of 9)
* S26A/K50W/V97W -> 4.2 µM (3 of 3 replicates; controls 1 of 9)
* Y30V/K50F/V97R -> 9.2 µM (2 of 3 replicates; controls 2 of 9)
* Y31D/K50W/S55G -> 49 nM (3 of 3 replicates; controls 6 of 9)
* S26L/K50H/F95R -> 4.5 µM (3 of 3 replicates; controls 4 of 9)
* K50G/R53W/D91I -> 46 µM (2 of 3 replicates; controls 4 of 9)
* N33F/K50Y/S55G -> nd (0 of 3 replicates; controls 1 of 9)
* K50M/R53V/D91Q -> 24 µM (1 of 3 replicates; controls 1 of 9)
* K50F/R53G/S89G -> 4.1 µM (1 of 3 replicates; controls 2 of 9)
* Y30M/G49K/K50G -> 92 nM (3 of 3 replicates; controls 6 of 9)
* K50L/R53F -> 22 µM (2 of 3 replicates; controls 3 of 9)
* K50R/R53Q/F98H -> 1.1 µM (3 of 3 replicates; controls 1 of 9)
* N33E/K50C/G94E -> 650 nM (3 of 3 replicates; controls 6 of 9)
* S26F/K50V/V97T -> 10 µM (1 of 3 replicates; controls 0 of 9)
* Y30A/K50P/N51G -> 7.0 nM (3 of 3 replicates; controls 2 of 9)
* D25H/K50E/S92C -> 160 nM (3 of 3 replicates; controls 2 of 9)
* Y29W/K50E/F95S -> 350 nM (3 of 3 replicates; controls 3 of 9)
* K50R/P54M/V97G -> 860 nM (3 of 3 replicates; controls 2 of 9)
* Y29D/G49H/K50F -> nd (0 of 3 replicates; controls 5 of 9)
* K50D/G94M/V97Q -> 160 nM (3 of 3 replicates; controls 6 of 9)
* Y29S/K50S/P54Y -> 1.6 µM (3 of 3 replicates; controls 2 of 9)

The first 3 variants above that were never detected:

- D25I/K50C/S93D = nd (0 of 3 replicates; controls 0 of 9)
- N33F/K50Y/S55G = nd (0 of 3 replicates; controls 1 of 9)
- Y29D/G49H/K50F = nd (0 of 3 replicates; controls 5 of 9)

Three control strains display no target. For library AAYL52, 28% of the pairings with them gave a signal, with a median of 8.2 µM and one signal in twenty below 800 nM, so weak values seen in few replicates may be background. For each scFv, signals with the empty controls are counted beside the result.

Source: Engelhart et al. 2022 (doi:10.1038/s41597-022-01779-4), MIT Lincoln Laboratory and A-Alpha Bio; data file from the FLAb repository.